Test results from patent US10508120B2, “TYK2 inhibitors and uses thereof” (Nimbus Lakshmi, Inc., priority 2017, dated 2019).

Protein sequences, listed by entry. Tags and fused reporters are not part of them. Residues count along the entry.
UniProt P29597, 556-888: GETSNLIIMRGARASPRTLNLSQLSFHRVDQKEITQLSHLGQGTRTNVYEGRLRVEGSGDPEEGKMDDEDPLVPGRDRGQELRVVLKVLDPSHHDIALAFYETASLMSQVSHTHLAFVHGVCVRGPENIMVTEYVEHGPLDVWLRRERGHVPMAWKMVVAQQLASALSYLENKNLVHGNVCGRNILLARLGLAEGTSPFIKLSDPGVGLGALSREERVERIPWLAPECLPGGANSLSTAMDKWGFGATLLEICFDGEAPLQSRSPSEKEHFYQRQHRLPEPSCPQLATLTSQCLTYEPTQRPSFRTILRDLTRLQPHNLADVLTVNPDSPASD

Biological target: human TYK2 (JH2domain-pseudokinase) (Homo sapiens (Human), UniProt P29597)
Assay: TYK2 JH2 Domain Binding Assay (KINOMEscan)

- Kd: < 0.2 nM
Structure (SMILES): CNc1cc(Nc2cccn(C3CC(F)(F)C3)c2=O)nc2c(C(=O)N[C@@H]3CCC[C@@H](O)C3)cnn12 [I-1209]
